Measurements: PubChem BioAssay (NCI)
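These data come from cells grown in 96-well plates and exposed to compound for 48 hours at five concentrations. At the TGI there is no net growth.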

Experiments:
Assay in all cases: NCI tumour cell line growth inhibition, 48 h
786-0 renal = test system: 786-0 renal
A498 renal = test system: A498 renal
ACHN renal = test system: ACHN renal
BT-549 breast = test system: BT-549 breast
CAKI-1 renal = test system: CAKI-1 renal
CCRF-CEM leukemia = test system: CCRF-CEM leukemia
COLO 205 colon = test system: COLO 205 colon
DU-145 prostate = test system: DU-145 prostate
EKVX NSCLC = test system: EKVX NSCLC
HCC-2998 colon = test system: HCC-2998 colon
HCT-116 colon = test system: HCT-116 colon
HCT-15 colon = test system: HCT-15 colon
HL-60(TB) leukemia = test system: HL-60(TB) leukemia
HOP-62 NSCLC = test system: HOP-62 NSCLC
HOP-92 NSCLC = test system: HOP-92 NSCLC
HT29 colon = test system: HT29 colon
IGROV1 ovarian = test system: IGROV1 ovarian
KM12 colon = test system: KM12 colon
LOX IMVI melanoma = test system: LOX IMVI melanoma
MALME-3M melanoma = test system: MALME-3M melanoma
MCF7 breast = test system: MCF7 breast
MDA-MB-231 breast = test system: MDA-MB-231 breast
MDA-MB-435 = test system: MDA-MB-435
MDA-N = test system: MDA-N
MOLT-4 leukemia = test system: MOLT-4 leukemia
NCI-H226 lung = test system: NCI-H226 lung
NCI-H23 lung = test system: NCI-H23 lung
NCI-H322M lung = test system: NCI-H322M lung
NCI-H460 lung = test system: NCI-H460 lung
NCI-H522 lung = test system: NCI-H522 lung
OVCAR-3 ovarian = test system: OVCAR-3 ovarian
OVCAR-4 ovarian = test system: OVCAR-4 ovarian
OVCAR-5 ovarian = test system: OVCAR-5 ovarian
PC-3 prostate = test system: PC-3 prostate
RPMI-8226 leukemia = test system: RPMI-8226 leukemia
RXF 393 renal = test system: RXF 393 renal
SF-268 CNS = test system: SF-268 CNS
SF-295 CNS = test system: SF-295 CNS
SK-MEL-2 melanoma = test system: SK-MEL-2 melanoma
SK-MEL-28 melanoma = test system: SK-MEL-28 melanoma
SK-MEL-5 melanoma = test system: SK-MEL-5 melanoma
SK-OV-3 ovarian = test system: SK-OV-3 ovarian
SN12C renal = test system: SN12C renal
SNB-19 CNS = test system: SNB-19 CNS
SR leukemia = test system: SR leukemia
SW-620 colon = test system: SW-620 colon
TK-10 renal = test system: TK-10 renal
U251 CNS = test system: U251 CNS
UACC-257 melanoma = test system: UACC-257 melanoma
UACC-62 melanoma = test system: UACC-62 melanoma
UO-31 renal = test system: UO-31 renal

Measured: TGI

[N-]=[N+]=CC(=O)OCCCN=[N+]=[N-]
> 100 µM: all assays above
